Patent US9302989B2 (priority 2010, dated 2016)

Protein sequences, listed by entry. Tags and fused reporters are not part of them. Lines headed by an entry give the natural chain unless they say otherwise; changes in a name come on top.
UniProt P43490: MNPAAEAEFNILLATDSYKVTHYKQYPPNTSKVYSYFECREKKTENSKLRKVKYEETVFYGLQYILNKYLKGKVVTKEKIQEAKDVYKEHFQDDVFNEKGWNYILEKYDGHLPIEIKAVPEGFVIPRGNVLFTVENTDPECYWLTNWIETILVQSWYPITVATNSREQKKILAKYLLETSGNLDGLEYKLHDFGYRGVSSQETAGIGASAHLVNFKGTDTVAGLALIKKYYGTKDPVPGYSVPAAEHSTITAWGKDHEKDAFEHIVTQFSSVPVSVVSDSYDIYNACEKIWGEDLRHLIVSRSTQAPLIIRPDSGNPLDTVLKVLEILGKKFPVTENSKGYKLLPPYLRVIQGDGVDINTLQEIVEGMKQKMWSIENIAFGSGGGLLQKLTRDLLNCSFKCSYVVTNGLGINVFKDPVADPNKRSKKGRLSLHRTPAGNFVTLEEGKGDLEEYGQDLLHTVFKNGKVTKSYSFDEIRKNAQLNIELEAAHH

Molecular target: NAMPT (Homo sapiens (Human), UniProt P43490)
Conditions: read-out: TR-FRET Binding IC50 (μM) probe 1

Q: With `CC(C)N(CCC(=O)O)C(=O)c1ccc(NC(=O)N2Cc3ccccc3C2)cc1` [Example 266, N-{4-[(1,3-dihydro-2H-isoindol-2-ylcarbonyl)amino]benzoyl}-N-isopropyl-beta-alanine] as the molecule, how does the IC50 read?
A: The IC50 was 2.29 µM.

Q: With `CCCOCCCNC(=O)c1ccc(NC(=O)N2Cc3ccccc3C2)cc1` [Example 82, N-{4-[(3-propoxypropyl)carbamoyl]phenyl}-1,3-dihydro-2H-isoindole-2-carboxamide] as the molecule, how does the IC50 read?
A: The IC50 was 0.0301 µM.

Q: For `COc1ccc(NC(C)=O)cc1NC(=O)c1ccc(NC(=O)N2Cc3ccccc3C2)cc1` [Example 167, N-{4-[(5-acetamido-2-methoxyphenyl)carbamoyl]phenyl}-1,3-dihydro-2H-isoindole-2-carboxamide], which IC50 is on record?
A: Its IC50 is 0.101 µM.

Q: How did the IC50 turn out when `O=C(NC1CCN(c2ccc(NC(=O)N3Cc4ccccc4C3)cc2)C1)c1ccccc1` (centres unmarked) [Example 339, N-{4-[3-(benzoylamino)pyrrolidin-1-yl]phenyl}-1,3-dihydro-2H-isoindole-2-carboxamide] was run?
A: The IC50 was 0.315 µM.

Q: Which IC50 does the source give for `O=C(Nc1ccccc1F)c1ccc(NC(=O)N2Cc3ccccc3C2)cc1` [Example 143, N-{4-[(2-fluorophenyl)carbamoyl]phenyl}-1,3-dihydro-2H-isoindole-2-carboxamide] here?
A: Its IC50 is 0.0665 µM.

Q: How did the IC50 turn out when `O=C(Nc1ccc(OC(F)(F)F)cc1)c1ccc(NC(=O)N2Cc3ccccc3C2)cc1` [Example 270, N-(4-{[4-(trifluoromethoxy)phenyl]carbamoyl}phenyl)-1,3-dihydro-2H-isoindole-2-carboxamide] was run?
A: The IC50 was 4.7 µM.

Q: For `O=C(Nc1ccc(C(=O)N2CCN(C(=O)c3ccco3)CC2)cc1)N1Cc2ccccc2C1` [Example 163, N-(4-{[4-(2-furoyl)piperazin-1-yl]carbonyl}phenyl)-1,3-dihydro-2H-isoindole-2-carboxamide], which IC50 is on record?
A: The IC50 was 0.0893 µM.

Q: Which IC50 does the source give for `O=C(NCCc1cccc(C(F)(F)F)c1)c1ccc(NC(=O)N2Cc3ccccc3C2)cc1` [Example 169, N-[4-({2-[3-(trifluoromethyl)phenyl]ethyl}carbamoyl)phenyl]-1,3-dihydro-2H-isoindole-2-carboxamide] here?
A: The IC50 was 0.108 µM.

Q: How did the IC50 turn out when `COc1ccc2c(c1)CN(C(=O)Nc1ccc(-c3c[nH]c(=O)c4ccccc34)cc1)C2` [Example 382, 5-methoxy-N-[4-(1-oxo-1,2-dihydroisoquinolin-4-yl)phenyl]-1,3-dihydro-2H-isoindole-2-carboxamide] was run?
A: The IC50 was 0.257 µM.

Q: For `O=C(Nc1ccc(C(=O)N2CCC(c3ccccc3F)C2)cc1)N1Cc2ccccc2C1` (centres unmarked) [Example 147, N-(4-{[3-(2-fluorophenyl)pyrrolidin-1-yl]carbonyl}phenyl)-1,3-dihydro-2H-isoindole-2-carboxamide], which IC50 is on record?
A: Its IC50 is 0.0701 µM.

Q: How did the IC50 turn out when `CN(C)CCCNC(=O)c1ccc(NC(=O)N2Cc3ccccc3C2)cc1` [Example 228, N-(4-{[3-(dimethylamino)propyl]carbamoyl}phenyl)-1,3-dihydro-2H-isoindole-2-carboxamide] was run?
A: Its IC50 is 0.359 µM.

Q: How did the IC50 turn out when `CCOCC(=O)N1CC=C(c2ccc(NC(=O)N3Cc4ccccc4C3)cc2)CC1` [Example 462, N-{4-[1-(ethoxyacetyl)-1,2,3,6-tetrahydropyridin-4-yl]phenyl}-1,3-dihydro-2H-isoindole-2-carboxamide] was run?
A: Its IC50 is 0.00694 µM.

Q: `CC(C)OCCCNC(=O)c1ccc(NC(=O)N2Cc3ccccc3C2)cc1` [Example 125, N-{4-[(3-isopropoxypropyl)carbamoyl]phenyl}-1,3-dihydro-2H-isoindole-2-carboxamide] was tested. Which IC50 did it give?
A: Its IC50 is 0.0518 µM.

Q: Which IC50 does the source give for `CC1CCN(C(=O)c2ccc(NC(=O)N3Cc4ccccc4C3)cc2)CC1` [Example 112, N-{4-[(4-methylpiperidin-1-yl)carbonyl]phenyl}-1,3-dihydro-2H-isoindole-2-carboxamide] here?
A: Its IC50 is 0.0445 µM.

Q: Which IC50 does the source give for `CC1CCCCN1C(=O)c1ccc(NC(=O)N2Cc3ccccc3C2)cc1` (centres unmarked) [Example 219, N-{4-[(2-methylpiperidin-1-yl)carbonyl]phenyl}-1,3-dihydro-2H-isoindole-2-carboxamide] here?
A: The IC50 was 0.284 µM.

Q: How did the IC50 turn out when `O=C(NCC1CCCCO1)c1ccc(NC(=O)N2Cc3ccccc3C2)cc1` (centres unmarked) [Example 419, N-{4-[(tetrahydro-2H-pyran-2-ylmethyl)carbamoyl]phenyl}-1,3-dihydro-2H-isoindole-2-carboxamide] was run?
A: The IC50 was 0.01 µM.

Q: `CC(=O)c1ccc(N2CCN(C(=O)c3ccc(NC(=O)N4Cc5ccccc5C4)cc3)CC2)cc1` [Example 56, N-(4-{[4-(4-acetylphenyl)piperazin-1-yl]carbonyl}phenyl)-1,3-dihydro-2H-isoindole-2-carboxamide] was tested. Which IC50 did it give?
A: Its IC50 is 0.0203 µM.

Q: How did the IC50 turn out when `O=C(Nc1ccc(NCCC2CCCC2)cc1)N1Cc2ccc(CO)cc2C1` [Example 316, N-{4-[(2-cyclopentylethyl)amino]phenyl}-5-(hydroxymethyl)-1,3-dihydro-2H-isoindole-2-carboxamide] was run?
A: The IC50 was 0.287 µM.

Q: For `O=C(NCCc1ccccc1F)c1ccc(NC(=O)N2Cc3ccccc3C2)cc1` [Example 119, N-(4-{[2-(2-fluorophenyl)ethyl]carbamoyl}phenyl)-1,3-dihydro-2H-isoindole-2-carboxamide], which IC50 is on record?
A: The IC50 was 0.0484 µM.

Q: `O=C(Nc1ccc(N2CCN(C(=O)C3CC3)CC2)cc1)N1Cc2ccccc2C1` [Example 343, N-{4-[4-(cyclopropylcarbonyl)piperazin-1-yl]phenyl}-1,3-dihydro-2H-isoindole-2-carboxamide] was tested. Which IC50 did it give?
A: The IC50 was 0.0791 µM.

Q: With `O=C(NCCc1cccnc1)c1ccc(NC(=O)N2Cc3ccccc3C2)cc1` [Example 144, N-(4-{[2-(pyridin-3-yl)ethyl]carbamoyl}phenyl)-1,3-dihydro-2H-isoindole-2-carboxamide] as the molecule, how does the IC50 read?
A: Its IC50 is 0.0666 µM.

Q: How did the IC50 turn out when `O=C(Nc1ccc(-c2n[nH]c(=O)c3c2CCCC3)cc1)N1Cc2ccccc2C1` [Example 377, N-[4-(4-oxo-3,4,5,6,7,8-hexahydrophthalazin-1-yl)phenyl]-1,3-dihydro-2H-isoindole-2-carboxamide] was run?
A: Its IC50 is 0.105 µM.

Q: With `CC(C)CCNC(=O)c1ccc(NC(=O)N2Cc3cccc(Cl)c3C2)cc1` [Example 67, 4-chloro-N-{4-[(3-methylbutyl)carbamoyl]phenyl}-1,3-dihydro-2H-isoindole-2-carboxamide] as the molecule, how does the IC50 read?
A: The IC50 was 0.0241 µM.

Q: With `O=C(Nc1cnn(-c2ccc(F)cc2)c1)c1ccc(NC(=O)N2Cc3ccccc3C2)cc1` [Example 234, N-(4-{[1-(4-fluorophenyl)-1H-pyrazol-4-yl]carbamoyl}phenyl)-1,3-dihydro-2H-isoindole-2-carboxamide] as the molecule, how does the IC50 read?
A: Its IC50 is 0.43 µM.

Q: How did the IC50 turn out when `O=C(CNC(=O)c1ccccc1)Nc1ccc(NC(=O)N2Cc3ccccc3C2)cc1` [Example 301, N-{4-[(N-benzoylglycyl)amino]phenyl}-1,3-dihydro-2H-isoindole-2-carboxamide] was run?
A: Its IC50 is 0.0546 µM.

Q: Which IC50 does the source give for `COc1cc(OC)cc(C(=O)N2CCN(c3ccc(NC(=O)N4Cc5ccccc5C4)cc3)CC2)c1` [Example 523, N-{4-[4-(3,5-dimethoxybenzoyl)piperazin-1-yl]phenyl}-1,3-dihydro-2H-isoindole-2-carboxamide] here?
A: Its IC50 is 0.187 µM.

Q: `O=C(Nc1ccc(C(=O)N2CCN(c3ncccn3)CC2)cc1)N1Cc2ccccc2C1` [Example 41, N-(4-{[4-(pyrimidin-2-yl)piperazin-1-yl]carbonyl}phenyl)-1,3-dihydro-2H-isoindole-2-carboxamide] was tested. Which IC50 did it give?
A: The IC50 was 0.0174 µM.

Q: Which IC50 does the source give for `COc1cc(CNC(=O)c2ccc(NC(=O)N3Cc4ccccc4C3)cc2)cc(OC)c1OC` [Example 40, N-{4-[(3,4,5-trimethoxybenzyl)carbamoyl]phenyl}-1,3-dihydro-2H-isoindole-2-carboxamide] here?
A: The IC50 was 0.0171 µM.

Q: Which IC50 does the source give for `O=C(CCNC(=O)N1Cc2ccccc2C1)NCCCc1ccccc1` [Example 363, N-{3-oxo-3-[(3-phenylpropyl)amino]propyl}-1,3-dihydro-2H-isoindole-2-carboxamide] here?
A: The IC50 was 2.04 µM.

Q: `CCCCCCOc1ccc(NC(=O)N2Cc3ccccc3C2)cc1` [Example 348, N-[4-(hexyloxy)phenyl]-1,3-dihydro-2H-isoindole-2-carboxamide] was tested. Which IC50 did it give?
A: The IC50 was 1.56 µM.

Q: Which IC50 does the source give for `O=C(NCC1CCOC1)c1ccc(NC(=O)N2Cc3cccnc3C2)cc1` (centres unmarked) [Example 447, N-(4-{[(tetrahydrofuran-3-ylmethyl)amino]carbonyl}phenyl)-5,7-dihydro-6H-pyrrolo[3,4-b]pyridine-6-carboxamide] here?
A: Its IC50 is 0.0466 µM.

Q: For `CCOCCNC(=O)c1ccc(NC(=O)N2Cc3ccccc3C2)cc1` [Example 142, N-{4-[(2-ethoxyethyl)carbamoyl]phenyl}-1,3-dihydro-2H-isoindole-2-carboxamide], which IC50 is on record?
A: Its IC50 is 0.0664 µM.

Q: `O=C(NCCCOc1ccc(Cl)cc1)c1ccc(NC(=O)N2Cc3ccccc3C2)cc1` [Example 269, N-(4-{[3-(4-chlorophenoxy)propyl]carbamoyl}phenyl)-1,3-dihydro-2H-isoindole-2-carboxamide] was tested. Which IC50 did it give?
A: Its IC50 is 3.62 µM.

Q: Which IC50 does the source give for `CCN(CC)CCNC(=O)c1ccc(NC(=O)N2Cc3ccccc3C2)cc1` [Example 190, N-(4-{[2-(diethylamino)ethyl]carbamoyl}phenyl)-1,3-dihydro-2H-isoindole-2-carboxamide] here?
A: Its IC50 is 0.15 µM.

Q: For `O=C(Nc1ccc(C(=O)N2CCn3cnnc3C2)cc1)N1Cc2ccccc2C1` [Example 207], which IC50 is on record?
A: Its IC50 is 0.219 µM.

Q: `Cn1cc(NC(=O)CCCCCNC(=O)N2Cc3ccccc3C2)cn1` [Example 359, N-{6-[(1-methyl-1H-pyrazol-4-yl)amino]-6-oxohexyl}-1,3-dihydro-2H-isoindole-2-carboxamide] was tested. Which IC50 did it give?
A: Its IC50 is 0.0881 µM.

Q: How did the IC50 turn out when `O=C(NC1CCN(Cc2ccccc2)CC1)c1ccc(NC(=O)N2Cc3ccccc3C2)cc1` [Example 164, N-{4-[(1-benzylpiperidin-4-yl)carbamoyl]phenyl}-1,3-dihydro-2H-isoindole-2-carboxamide] was run?
A: Its IC50 is 0.0907 µM.

Q: For `CCCCCCCCNC(=O)N1Cc2ccccc2C1` [Example 358, N-octyl-1,3-dihydro-2H-isoindole-2-carboxamide], which IC50 is on record?
A: The IC50 was 0.0711 µM.

Q: `O=C(NCCc1cccc(F)c1)c1ccc(NC(=O)N2Cc3ccccc3C2)cc1` [Example 135, N-(4-{[2-(3-fluorophenyl)ethyl]carbamoyl}phenyl)-1,3-dihydro-2H-isoindole-2-carboxamide] was tested. Which IC50 did it give?
A: Its IC50 is 0.0615 µM.

Q: Which IC50 does the source give for `O=C(NCc1ccccc1)c1ccc(NC(=O)N2Cc3ccccc3C2)cc1` [Example 73, N-[4-(benzylcarbamoyl)phenyl]-1,3-dihydro-2H-isoindole-2-carboxamide] here?
A: The IC50 was 0.0267 µM.

Q: Which IC50 does the source give for `CCCN(C)C(=O)c1ccc(NC(=O)N2Cc3ccccc3C2)cc1` [Example 267, N-{4-[methyl(propyl)carbamoyl]phenyl}-1,3-dihydro-2H-isoindole-2-carboxamide] here?
A: Its IC50 is 2.75 µM.
